Apparent affinities of Ab-14 variants for a coronavirus HR2 peptide

Reference: Li et al. 2023, doi:10.1038/s41467-023-39022-2. File: FLAb, binding data.

Antigen: PDVDLGDISGINAS, a 14-residue peptide of the SARS-CoV-2 spike HR2 region.

Each scFv is VH, three GGGGS repeats, VL, as in the parent Ab-14, and differs from it in the CDRs of the light chain only.
VH: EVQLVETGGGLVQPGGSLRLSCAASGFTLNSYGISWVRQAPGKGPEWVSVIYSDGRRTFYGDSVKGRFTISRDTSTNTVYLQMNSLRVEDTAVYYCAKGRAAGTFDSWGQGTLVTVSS
VL: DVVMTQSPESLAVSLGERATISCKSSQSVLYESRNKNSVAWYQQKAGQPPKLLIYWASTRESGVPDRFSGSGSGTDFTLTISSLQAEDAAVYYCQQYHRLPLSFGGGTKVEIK

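The starting antibody came from a phage panning campaign against this peptide. Designed CDR sequences, proposed from the first random library and measured here. Their group label is 14L_En_HC (En: ensemble of fine-tuned language models; HC: hill climbing; a sequence that several methods proposed may carry one label only). In AlphaSeq, yeast of one mating type display the scFv and yeast of the other type display the target. Mating (16 h, 30 °C) was followed by selection of diploids and sequencing of their barcodes. Read counts were normalised to the haploid input and turned into Kd by a linear fit to BCL2-family pairs of known affinity, for each replicate. There are six technical replicates.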

The parent's light chain CDRs are KSSQSVLYESRNKNSVA, WASTRES, QQYHRLPLS; each variant's own CDRs replace them letter for letter. Affinities are written as log10 Kd with Kd in nM; a lower number is a better binder. A mean of the replicates is given; it leaves out those without a signal. "ND" means that the variant was in the library but no mating with the target was seen in that replicate; the authors take this as a sign of poor binding, and no number exists. Values of this round are not directly comparable with the first-round values of the same sequences. Three control strains display no target. For all light chain designs, 4% of the pairings with them gave a signal, with a median of 2.64 and one signal in twenty below 1.59, so weak values seen in few replicates may be background. For each scFv, signals with the empty controls are counted beside the result, with their mean in brackets. The authors' rule: three or more of the six replicates give a measured affinity, fewer mean a poor binder.

CDR-L1	CDR-L2	CDR-L3	log10 Kd (nM) by replicate	mean, log10 nM	control signals
KLSMAYRYESENKNSIA	ELVTRMS	QQYHRLPLS	1.08 1.04 0.95 0.80 1.15 1.17	1.03	1/18 (2.71)
TVSQVHEMLSRNKNSVA	DANTRPS	QQYDRLPLS	0.17 0.29 0.41 0.16 0.25 0.35	0.27	1/18 (2.84)
KLGGVTSYEMQNKNSVA	QMTTREN	QQYHRLPLS	0.08 0.17 -0.05 0.07 0.08 0.29	0.11	1/18 (4.22)
KISQLVNFLGKEKNSVA	QMSTRES	QQYDRLPLS	1.56 1.96 1.74 2.05 2.44 2.41	2.03	0/18
KLRQMTLTEGYFKNSVA	QAETRES	QSYHRLPLS	0.92 0.87 0.61 0.46 0.69 0.74	0.72	0/18
KLIQSVAMSSRNKDSIA	DNSTRFY	QQYHRLPLS	0.59 0.93 0.96 1.32 0.81 0.84	0.91	0/18
KLSQSVNFFGHAINSVA	EMVTREN	QQYDRLPLS	1.64 1.32 1.25 1.13 1.37 1.35	1.34	0/18
NSSGPMMFESRNKNSVA	HASTREE	QQYERLPLS	-0.10 -0.20 -0.04 -0.11 -0.14 -0.13	-0.12	1/18 (2.96)
ILYESVGTLSRNKHSVA	DNSTREK	QQYDRLPLS	0.49 0.29 0.02 0.40 0.35 0.15	0.28	2/18 (3.11)
ALSQSMDMTSRNKNSVA	DLTMREN	QQYHRLPLS	0.60 0.46 0.32 0.17 0.07 0.56	0.36	1/18 (2.69)
KLGDFVHTESRNKNSIA	DMRTRES	QQYYRLPLS	0.37 -0.07 0.07 -0.21 -0.24 -0.04	-0.02	0/18
TLGQVTMQLSVNKNSVA	DANTSGD	QQYDRLPLS	2.47 2.90 ND 2.28 2.21 3.06	2.59	2/18 (2.73)
KLSQSVLFWGHAINSVA	EMETREA	QQYDRLPLS	ND 1.15 3.33 1.70 1.58 1.97	1.95	0/18
KLSDVTEYESRNKNNVA	DLSTRGS	QDYHRLPLS	-0.17 -0.26 -0.22 -0.59 -0.23 -0.27	-0.29	1/18 (3.72)
KIGMGTNGEKFQSNSVA	QTSTREE	QQYHRLPLS	0.71 0.24 0.24 0.25 0.40 0.74	0.43	0/18
TIAQSMLYLSNSKNSIA	QAETRED	QQYHRLPIS	0.56 0.22 0.56 0.33 0.64 0.74	0.51	0/18
TLTQSVLMESHNKNSIA	DLSTRGS	QQYHRLPLS	0.37 0.08 0.09 -0.09 0.05 0.10	0.10	2/18 (2.63)
KLSQVTEYEQHNRDNVA	DLTTRGR	QDYHRLPLS	0.60 0.29 0.32 0.10 0.41 0.36	0.35	0/18
ALSQSMDMTSRNKNNVA	DLSTREN	QQYHRLPLS	-0.22 -0.27 -0.26 -0.45 -0.42 -0.17	-0.30	1/18 (2.95)
TISMSMNWLTFNKDNIA	EESTREN	QQYDRLPLS	3.82 ND 2.06 2.51 2.70 ND	2.77	0/18
TISESWMYESRNKNNVA	EESTKYD	QSYFRLPLS	0.48 0.37 0.26 0.35 0.28 0.32	0.34	1/18 (3.14)
KLGASTRFESSNKASIA	DNSTRES	QQYHRLPLS	0.50 0.56 0.63 0.73 0.59 0.66	0.61	2/18 (2.06)
KLYQSVGTMSHNKQNIA	DMERRED	QQYHRLPLS	-0.39 -0.29 -1.06 -1.41 -1.00 -0.51	-0.78	1/18 (0.87)
QLYAVQDMTSKNSNNVA	EQNTREN	QQYHRLPLS	1.65 2.17 1.47 1.40 2.19 1.72	1.76	0/18
MISDLMQYGSRNKNPIA	NASTREY	QQYHRLPLE	0.72 0.80 0.65 0.62 0.79 1.17	0.79	0/18
HISQSVGMTSFNKNSVA	ENTTREN	QQYDRLPLS	2.49 2.89 2.29 ND 2.71 ND	2.59	0/18
HVSEMIFAQNKARNSVA	ENNTREA	QQYDRLPLS	2.24 2.84 1.81 2.07 2.62 2.39	2.33	2/18 (3.15)
TISTSMRYESSLKNAIA	NAQTRES	QQYHRLPLS	0.44 0.13 0.14 -0.04 0.16 0.19	0.17	0/18
MMSQLFEGLSTSKNPVA	QVSTREE	QQYHRLPLS	2.01 0.44 0.87 1.76 1.24 1.40	1.29	2/18 (1.48)
KLSQSVLFWGHAINSVA	EMETREE	QQYDRLPLS	1.89 1.86 1.75 1.53 2.45 2.24	1.95	0/18
MISQLFMYGSRNYNSIA	QASTREK	QQYDRLPLE	1.06 1.01 1.50 0.86 1.32 1.12	1.14	0/18
KIGHGLTTESRNRNSVA	QTETRES	QHYHRLPLS	0.53 1.23 0.81 0.53 0.10 1.30	0.75	0/18
KIGLVTNGISFSTNSVA	EQSTREN	QQYDRLPLS	1.10 1.06 1.18 1.27 1.06 1.35	1.17	2/18 (3.34)
KLSNVTEYESRNKNNVA	DLTTRGS	QDYHRLPLS	0.17 0.08 0.13 -0.19 0.19 0.17	0.09	0/18
MAYGGDMLESATRNSVA	NAETRED	QDYHRLPLS	0.74 1.25 0.63 0.55 1.13 0.93	0.87	0/18
KLSQVTHSESRNKNSIA	EMVNREV	QQYDRLPLS	0.79 1.29 0.78 1.19 0.44 0.84	0.89	0/18
TLSHSTDLELVHKNSIA	DLMTRES	QQYDRLPLS	0.31 0.18 0.17 0.01 0.35 0.34	0.23	2/18 (2.38)
KILQEVTGRSQNRNSVA	HNSTRED	QQYDRLPLI	ND 2.62 2.67 ND ND 3.54	2.94	0/18
SFSQTVMYESTHRNNVA	QTSTRES	QQYDRLPLS	0.45 1.68 0.64 1.26 1.45 ND	1.10	1/18 (1.84)
TITQSVLMTGLNRNSVA	QAEERLE	QQYHRLPLS	0.94 1.06 0.76 0.40 0.76 0.89	0.80	1/18 (2.67)
TISQHAQMESHNKNSVA	DLNVRGS	QQYDRLPLS	0.20 0.57 0.27 0.03 0.33 0.10	0.25	2/18 (2.87)
KIMQSLNYESFNVSSVA	GQETRER	QAYHRLPLS	ND 2.59 ND 2.57 ND 2.43	2.53	0/18
KLSMSMLMESRHKNNVA	ENSTRES	QHYHRLPLS	ND ND ND ND ND ND	ND	0/18
TISQSTYWESFNKNNVA	QTSTRLE	QDYDRLPLS	ND 4.13 2.44 2.99 2.36 3.33	3.05	4/18 (2.51)
HMSQVTMYGMWMKNSVA	QTSTREE	QQYDRLPLS	1.52 0.66 0.66 0.85 0.94 0.74	0.90	1/18 (1.91)
KLSISHQVESINKSNVA	EMVTRES	QQYNRLPLS	1.89 1.32 1.26 1.76 1.58 1.92	1.62	2/18 (2.33)
KLLQEVTGHSRNRNSVA	HNSTRED	QQYDRLPLI	ND ND ND ND ND ND	ND	0/18
MISDLTMYGSRNKNSVA	DSSTRGN	QQYHRLPLS	-0.04 -0.17 -0.17 -0.33 -0.23 -0.11	-0.17	1/18 (2.06)
MISDLAMYGSRNKNSVA	DLSTRGS	QQYHRLPLS	0.13 0.18 0.13 -0.22 -0.19 0.23	0.04	1/18 (3.18)
HLLQTVMYGSTRKNSVA	HAQTREN	QQYHRLPLM	ND 2.08 2.19 2.29 2.56 1.88	2.20	1/18 (2.97)
KIYASTMLESHDKNSIA	DLTTRGN	QQYHRLPLS	0.48 0.38 0.11 0.23 0.37 0.33	0.32	0/18
TISTSALYESINKNSVA	ELSTRGQ	QQYERLPLS	0.67 0.65 0.65 0.68 0.55 0.87	0.68	1/18 (2.35)

Extract of 8 entries:

CDR-L1	CDR-L2	CDR-L3	log10 Kd (nM) by replicate	mean, log10 nM	control signals
MISDLAMYGSRNKNSVA	DLSTRGS	QQYHRLPLS	0.13 0.18 0.13 -0.22 -0.19 0.23	0.04	1/18 (3.18)
TITQSVLMTGLNRNSVA	QAEERLE	QQYHRLPLS	0.94 1.06 0.76 0.40 0.76 0.89	0.80	1/18 (2.67)
TISTSALYESINKNSVA	ELSTRGQ	QQYERLPLS	0.67 0.65 0.65 0.68 0.55 0.87	0.68	1/18 (2.35)
MAYGGDMLESATRNSVA	NAETRED	QDYHRLPLS	0.74 1.25 0.63 0.55 1.13 0.93	0.87	0/18
MMSQLFEGLSTSKNPVA	QVSTREE	QQYHRLPLS	2.01 0.44 0.87 1.76 1.24 1.40	1.29	2/18 (1.48)
NSSGPMMFESRNKNSVA	HASTREE	QQYERLPLS	-0.10 -0.20 -0.04 -0.11 -0.14 -0.13	-0.12	1/18 (2.96)
TISQHAQMESHNKNSVA	DLNVRGS	QQYDRLPLS	0.20 0.57 0.27 0.03 0.33 0.10	0.25	2/18 (2.87)
KIGHGLTTESRNRNSVA	QTETRES	QHYHRLPLS	0.53 1.23 0.81 0.53 0.10 1.30	0.75	0/18